Among the data in paper PMC7801566 (Medicinal Chemistry Research, 2021) are IC50 values, retold here.

Molecules are shown by their SMILES.

In this test the target is T1, Human neutrophil elastase (hNE) (Homo sapiens, UniProt P08246).
T1 sequence (P08246 30-247): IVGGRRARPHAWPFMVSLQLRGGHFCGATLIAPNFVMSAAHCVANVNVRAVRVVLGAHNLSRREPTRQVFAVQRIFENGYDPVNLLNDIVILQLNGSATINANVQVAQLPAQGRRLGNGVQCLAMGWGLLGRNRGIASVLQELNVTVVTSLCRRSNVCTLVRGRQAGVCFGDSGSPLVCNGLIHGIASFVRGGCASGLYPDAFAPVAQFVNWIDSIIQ
Briefly: fluorogenic peptide substrate. The format is biochemical.

In turn, `CC(C)(C)C(=O)Oc1ccc(S(=O)(=O)Nc2ccccc2C(=O)NCC(=O)O)cc1` [Sivelestat] came in with an IC50 of 33 nM.
